From article PMC4599966

B1: optineurin full-length wild-type (two-hybrid prey) [not stated] / LC3B (two-hybrid bait) [not stated] (parent)
chain 1: MSHQPLSCLTEKEDSPSESTGNGPPHLAHPNLDTFTPEELLQQMKELLTENHQLKEAMKLNNQAMKGRFEELSAWTEKQKEERQFFEIQSKEAKERLMALSHENEKLKEELGKLKGKSERSSEDPTDDSRLPRAEAEQEKDQLRTQVVRLQAEKADLLGIVSELQLKLNSSGSSEDSFVEIRMAEGEAEGSVKEIKHSPGPTRTVSTGTALSKYRSRSADGAKNYFEHEELTVSQLLLCLREGNQKVERLEVALKEAKERVSDFEKKTSNRSEIETQTEGSTEKENDEEKGPETVGSEVEALNLQVTSLFKELQEAHTKLSEAELMKKRLQEKCQALERKNSAIPSELNEKQELVYTNKKLELQVESMLSEIKMEQAKTEDEKSKLTVLQMTHNKLLQEHNNALKTIEELTRKESEKVDRAVLKELSEKLELAEKALASKQLQMDEMKQTIAKQEEDLETMTILRAQMEVYCSDFHAERAAREKIHEEKEQLALQLAVLLKENDAFEDGGRQSLMEMQSRHGARTSDSDQQAYLVQRGAEDRDWRQQRNIPIHSCPKCGEVLPDIDTLQIHVMDCII
chain 2: not shown

Variants of: B1
Assay: mammalian 2-hybrid assay
Conditions: with LC3B (two-hybrid bait); CHOK.1 cells; LC3B as bait; read off a plot

| response | Variant |
| --- | --- |
| 19 | chain 1 F178A |
